Test results as given in PMC3260180, “FRET-Based Detection of M1 Muscarinic Acetylcholine Receptor Activation by Orthosteric and Allosteric Agonists” (PLoS ONE, 2012).

Sequences of proteins named here, by UniProt entry; tags and fusion partners are left off. A change or cut given only in a name is not applied to a line headed by its entry.
UniProt P12657: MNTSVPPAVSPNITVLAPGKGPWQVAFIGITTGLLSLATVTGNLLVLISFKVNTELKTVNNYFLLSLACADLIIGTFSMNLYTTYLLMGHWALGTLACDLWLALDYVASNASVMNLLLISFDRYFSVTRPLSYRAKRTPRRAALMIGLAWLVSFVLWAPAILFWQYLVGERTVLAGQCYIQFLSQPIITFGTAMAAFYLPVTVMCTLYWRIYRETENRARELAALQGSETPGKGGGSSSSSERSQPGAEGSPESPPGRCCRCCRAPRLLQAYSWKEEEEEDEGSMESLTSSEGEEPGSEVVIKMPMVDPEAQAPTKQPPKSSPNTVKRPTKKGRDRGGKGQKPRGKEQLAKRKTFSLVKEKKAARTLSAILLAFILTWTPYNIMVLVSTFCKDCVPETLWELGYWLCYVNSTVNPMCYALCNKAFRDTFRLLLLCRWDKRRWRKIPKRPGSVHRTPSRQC

Molecular target: M1-cam5 mAChR (Mus musculus, UniProt P12657, INS361[…])
Experiment: [3H]NMS saturation binding in HEK293-M1-cam5 cells
Design: addition of the EYFP^F46L to the C-terminus of full length M1 mAChR; expressed in transfected cells; host or cells: HEK293 cells stably expressing M1-cam5 (HEK293-M1-cam5)
Conditions: n = 4, read-out: dissociation constant (K D)

Structure (SMILES): C[N+]1(C)[C@@H]2C[C@@H](OC(=O)[C@H](CO)c3ccccc3)C[C@H]1[C@@H]1O[C@@H]12 [[^3H]NMS, N-methyl-[^3H]scopolamine]
- Kd: 0.25 ± 0.03 nM
